Test results taken from patent publication US10694743B2, “Agricultural compositions with reduced aquatic toxicity” (priority 2014, dated 2020).

Tested on: Daphnia magna
Assay: Aquatic toxicity screen, Daphnia sp. Acute Immobilization Test (OECD 202 / OPPTS 850.1010)
Settings: from 48-hour EC50
Method: The study is performed based on procedures in the OECD Guidelines for Testing of Chemicals, Guideline 202: Daphnia sp., Acute Immobilization Test, and U.S. EPA Guidelines, OPPTS Number 850.1010: Aquatic Invertebrate Acute Toxicity Test. The half maximal effective concentration (EC50) after 48 hours is reported below.

unsaturated C11 fatty amine 5EO ethoxylate [Unsaturated C11 amine 5 EO ethoxylate]
aquatic toxicity rating: slightly toxic
